Measured values: publication PMC4768790 (The New phytologist, 2015)

Molecular target: HopZ3 (Pseudomonas syringae, UniProt Q4ZX47)
Assay: in vitro autoacetylation assay, […] autoradiography
Format: biochemical
Settings: labelled compound; 50 mM HEPES pH 8.0, 30°C, 1 h

Structure (SMILES): CC(=O)SCCNC(=O)CCNC(=O)[C@H](O)C(C)(C)COP(=O)(O)OP(=O)(O)OC[C@H]1O[C@@H](n2cnc3c(N)ncnc32)[C@H](O)[C@@H]1OP(=O)(O)O [acetyl-CoA]
- in vitro autoacetylation assay, 14C autoradiography: HopZ3 possesses an acetyltransferase activity in vitro
